Data published in patent US20110033461A1, “Combination Therapy for the Treatment of Cancer” (priority 2008, published 2011).

Tested on: HCT116 cells
Test: viability-based synergy experiment, C1368 and cetuximab, HCT116 cells
Type: cell-based, human
From the text: In accordance with the present invention, we have determined that the combination of chemical inhibition of Aurora kinases with inhibition of EGFR results in the synergistic inhibition of cancer cell growth. In a preferred embodiment, the Aurora kinase inhibitor is selected from the group consisting of siRNA which down modulate expression of Aurora kinase, bioavailable small molecule inhibitors of Aurora kinases (both A and B), e.g., VX-680 (also known as MK0457; Vertex) PHA-680632 and PHA-739758 (Nerviano), AKI-001 (Genentech), MLN8054, MLN8237 (Millenium Pharmaceuticals), C1368 (Sigma) and the EGFR inhibitor is selected from the group consisting of erlotinib, cetuximab, gefitinib, and panitumumab. In vitro, viability-based synergy experiments detected a strong synergy between the two inhibitor agents.
To assess the applicability of our discovery to other FDA approved EGFR inhibitors, we tested the ability of EGFR-targeting antibody, cetuximab, to synergize with Sigma C1368 (FIG. 6). Cetuximab has a completely different mechanism of EGFR inhibition than erlotinib. Cetuximab binds to the cell surface domains of EGFR and causes EGFR internalization and inhibition of ligand mediated signaling. […] Strikingly, cetuximab synergistically killed HCT116 cells when given in combination (1:109 ratio) (1:8.5 ratio in μm) with C1368 (FIGS. 6C and 6D, FIG. 7 and Table 2). […]

IC50 (cetuximab with C1368, 1:109 ratio, read-out: IC50 value in combination): 100 nM
Substance: cetuximab
inhibition of HCT116 cells, drug alone (cetuximab alone): did not cause any significant inhibition
